From US20050287565A1, “Methods, compositions and compound assays for inhibiting amyloid-beta protein production” (priority 2004, published 2005)

The chains behind the UniProt entries cited, without tags or fusion partners.
UniProt P25103, whole entry: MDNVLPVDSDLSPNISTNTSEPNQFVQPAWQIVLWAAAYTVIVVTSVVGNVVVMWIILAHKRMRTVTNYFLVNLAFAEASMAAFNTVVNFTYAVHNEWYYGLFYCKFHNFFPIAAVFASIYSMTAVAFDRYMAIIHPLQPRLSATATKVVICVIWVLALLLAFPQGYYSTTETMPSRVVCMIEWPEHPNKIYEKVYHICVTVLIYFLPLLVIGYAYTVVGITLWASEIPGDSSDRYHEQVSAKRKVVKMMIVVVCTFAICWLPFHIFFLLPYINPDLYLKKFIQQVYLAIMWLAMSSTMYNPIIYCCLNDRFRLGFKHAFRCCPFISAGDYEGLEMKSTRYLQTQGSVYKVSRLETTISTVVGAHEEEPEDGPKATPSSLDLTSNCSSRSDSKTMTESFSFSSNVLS

Tests used:
TACR1 [1] = target: T1, TACR1 (Homo sapiens, UniProt P25103); experiment: TACR1 agonist validation in SH-SY5Y APPwt cells, amyloid beta ELISA; format: cell-based; settings: SH-SY5Y APPwt cells infected with Ad5/TACR1; increasing amounts of agonist, 24 h; concentration dependent
TACR1 [2] = target: T1, TACR1; experiment: TACR1 agonist and antagonist validation in Hek293 APPwt cells, amyloid beta ELISA; format: cell-based; settings: Hek293 APPwt cells infected with Ad5/TACR1; increasing amounts of agonist, 24 h; concentration dependent

With substance P the “amount of amyloid beta 1-42 secreted in the medium” value (TACR1 [1]) was “increased”, the “amount of amyloid beta x-42 secreted in the medium” value (TACR1 [1]) was “increased” and the “amount of amyloid beta 1-42 secreted in the medium” value (TACR1 [2]) was “decreased”. The “amount of amyloid beta x-42 secreted in the medium” value (TACR1 [2]) was “increased”.
